Target: H3 tetra-acetylated nucleosome (H3 K9, 14, 18, 23 acetylated; Xenopus laevis histone octamer on Cy5 labelled 0W0 DNA) (Xenopus laevis) (UniProt P84233)

Question: With “RSC complex, P32597 1-1359; Q06488 1-889; Q06639 1-885; P38781 1-883; Q02206 1-625; P25632 1-483; P32832 1-435; P43609 1-557; Q06168 1-426; Q12406 1-477; Q05123 1-467” as the substance, how does the initial rate of nucleosome sliding by RSC, H3 acetylated nucleosomes against wild type H3 nucleosomes as reference in the same reaction read?
Answer: 14.3 fold

From PMC2279226
